Source: patent US12729404B2, “Method and kit for testing drug hypersensitivity reactions caused by sulfonamide derivative-based antiepileptic drug and use of the kit” (CHANG GUNG MEMORIAL HOSPITAL, LINKOU, priority 2020, dated 2026)

Test system: HLA-B*13:01 and (HLA-B*51:01 or HLA-B*51:02)
Assay: Association of the combination of HLA-B*13:01 and (HLA-B*51:01 or HLA-B*51:02) with zonisamide-induced severe cutaneous adverse reactions (SCAR), cases vs general population

With `NS(=O)(=O)Cc1noc2ccccc12` [zonisamide] the OR (SCAR cases vs 2038 healthy controls) was 46.2, the “Cases (%) carrying the allele” value (zonisamide-SCAR cases) was “(100%)” and the “Cases N (allele carriers / patients)” value (zonisamide-SCAR cases) was 7/7.
